Reference: PMC7049730 (Nucleic Acids Research, 2019)

Tested on: Nc1ncnc2c1ncn2[C@@H]1O[C@H](COP(=O)(O)OP(=O)(O)OP(=O)(O)O)[C@@H](O)[C@H]1O
Assay: purified protein
Conditions: no DNA, 65 C, pH 7.5, 5 mM MgCl2, 80 mM NaCl, 0-300 μM ATP, cooperative (Hill fit)

Row | Substance | Km [µM] | kcat [s⁻¹]
1 | Pf MR^NBD complex (Mre11-Rad50^NBD) (Pyrococcus furiosus DSM 3638; D829A/DEL196-708) | 24.5 ± 1.0 | 0.0188 ± 0.00033
2 | Pf MR^NBD complex (Mre11-Rad50^NBD) (Pyrococcus furiosus DSM 3638; D829N/DEL196-708) | 44.6 ± 1.2 | 0.0277 ± 0.00033
3 | Pf MR^NBD complex (Mre11-Rad50^NBD) (Pyrococcus furiosus DSM 3638; DEL196-708) | 17.0 ± 0.9 | 0.00217 ± 0.00017
4 | Pf MR^NBD complex (Mre11-Rad50^NBD) (Pyrococcus furiosus DSM 3638; DEL196-708/L828A) | 53.2 ± 3.4 | 0.0105 ± 0.00033
5 | Pf MR^NBD complex (Mre11-Rad50^NBD) (Pyrococcus furiosus DSM 3638; DEL196-708/L828F) | 47.1 ± 2.2 | 0.014 ± 0.00033
6 | full-length Pf MR complex (Mre11_2-Rad50_2) (Pyrococcus furiosus DSM 3638) | 19.8 ± 2.1 | 0.002 ± 0.00017
7 | full-length Pf MR complex (Mre11_2-Rad50_2) (Pyrococcus furiosus DSM 3638; D829A) | 39.0 ± 0.7 | 0.00767 ± 0.00017
8 | full-length Pf MR complex (Mre11_2-Rad50_2) (Pyrococcus furiosus DSM 3638; D829N) | 43.9 ± 0.9 | 0.006 ± 0.00017
9 | full-length Pf MR complex (Mre11_2-Rad50_2) (Pyrococcus furiosus DSM 3638; L828A) | 36.7 ± 2.1 | 0.003 ± 0.00017
10 | full-length Pf MR complex (Mre11_2-Rad50_2) (Pyrococcus furiosus DSM 3638; L828F) | 49.2 ± 3.5 | 0.00433 ± 0.00017
